Experiment: Stability of the compounds assessed by NMR (PBS, MEM)

CCCC(OO)OO
Degradation (MEM: 24 hours, 5° C.): 11% | Degradation (MEM: 24 hours, 25° C.): 15% | Degradation (MEM: 24 hours, 37° C.): 30% | Degradation (PBS: 16 hours, 2-8° C., then 3 hours at 37° C.): None

Reference: patent US9426989B2 (priority 2010, dated 2016)
